Reference: patent US9844554B2 (Neurogastrx, Inc., priority 2014, dated 2017)

Protein sequences, listed by entry. Tags and fused reporters are not part of them. Lines headed by an entry give the natural chain unless they say otherwise; changes in a name come on top.
UniProt Q12809: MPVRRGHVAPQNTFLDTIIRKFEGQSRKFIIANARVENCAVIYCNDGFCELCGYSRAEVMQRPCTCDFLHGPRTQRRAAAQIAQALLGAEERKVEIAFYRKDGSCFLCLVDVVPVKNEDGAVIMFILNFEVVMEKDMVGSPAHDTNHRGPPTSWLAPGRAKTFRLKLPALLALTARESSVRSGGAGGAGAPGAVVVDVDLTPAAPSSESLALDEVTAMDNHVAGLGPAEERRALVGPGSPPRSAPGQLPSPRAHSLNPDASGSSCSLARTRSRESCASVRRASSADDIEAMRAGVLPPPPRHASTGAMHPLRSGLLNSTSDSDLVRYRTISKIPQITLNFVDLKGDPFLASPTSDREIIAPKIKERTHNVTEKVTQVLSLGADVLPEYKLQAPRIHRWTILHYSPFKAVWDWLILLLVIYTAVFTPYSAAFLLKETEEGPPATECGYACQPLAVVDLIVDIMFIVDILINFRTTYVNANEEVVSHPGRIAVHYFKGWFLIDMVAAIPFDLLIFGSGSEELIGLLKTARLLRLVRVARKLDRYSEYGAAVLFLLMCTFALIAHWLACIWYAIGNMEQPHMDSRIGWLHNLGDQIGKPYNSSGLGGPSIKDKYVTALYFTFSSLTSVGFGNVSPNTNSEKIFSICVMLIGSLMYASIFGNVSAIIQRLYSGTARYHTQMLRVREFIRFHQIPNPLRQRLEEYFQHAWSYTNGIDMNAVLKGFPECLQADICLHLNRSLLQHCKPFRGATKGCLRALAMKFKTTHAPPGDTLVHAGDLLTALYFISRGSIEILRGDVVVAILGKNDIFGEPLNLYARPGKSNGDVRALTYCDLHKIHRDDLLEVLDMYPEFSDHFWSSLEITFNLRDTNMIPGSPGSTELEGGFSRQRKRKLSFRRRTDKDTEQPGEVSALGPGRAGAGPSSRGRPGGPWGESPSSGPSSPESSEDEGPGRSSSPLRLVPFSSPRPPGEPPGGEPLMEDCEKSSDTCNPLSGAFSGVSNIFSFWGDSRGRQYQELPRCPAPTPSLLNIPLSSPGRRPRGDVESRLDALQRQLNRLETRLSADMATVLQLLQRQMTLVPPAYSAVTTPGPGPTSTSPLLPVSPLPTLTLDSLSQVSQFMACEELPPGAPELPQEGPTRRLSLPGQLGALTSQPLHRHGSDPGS

Molecular target: hERG channel (Homo sapiens, UniProt Q12809)
Test: hERG voltage clamp assay in hERG-expressing cultured cells
Type: cell-based
Conditions: relative to domperidone

## CS(=O)(=O)c1ccc2c(c1)N(CCCN1CCC(C(=O)O)CC1)c1ccccc1S2 [Metopimazine-Acid, metopimazine acid]
  fold less potent than domperidone to inhibit hERG channels: > 100 fold
